High-throughput results (PubChem BioAssay)
uPA generation = cell surface uPA generation inhibition; cell surface uPA generation assay, qHTS; AID 540303; actives 0.31% (n = 330,000); Potency, µM (titrated, usually from 38.3 µM), without a hit: top-dose activity change, negative = inhibition, most hits filed as inhibitors; active = well fitted inhibition curve with a large enough effect; inconclusive = small, poorly fitted or top-dose-only effect; inactive = no such curve, though single readings can be large or run the other way; tested in mouse RAW 264.7 cells; note: potency is the fitted concentration of half-maximal effect; % is set by controls: 0 for no effect and ±100 for the full control effect; nearly all actives have a fitted effect of over 55% in size
miR-21 reporter = miR-21 reporter, rising signal; Potency, µM (top dose mostly 38.3 µM), for the others: at the highest dose reporter change, positive = more light; 340,000 tested, under 10 active; HeLa miR-21 FLuc reporter, luciferase, 48 h; active = well fitted rising curve with a large enough effect; inconclusive = small, poorly fitted or top-dose-only effect; inactive = no such curve, though single readings can be large or run the other way;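 note: % of control where 0% means no effect; miR-21 action dims this reporter so a rising signal means less miR-21 action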
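HeLa miR-21-FLuc reporter line, endogenous miR-21; 2000 cells/well in DMEM/10% FBS; compound titration up to ~40uM final, 48 h, 37 degree Celsius; luciferase detection reagent, 15 min lysis, CCD luminescence.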
TDP1 cell CPT = growth inhibition of DT40 Tdp1-/-;hTDP1 cells with camptothecin (screen for TDP1 inhibitors); chicken DT40 Tdp1-/-;hTDP1 cells + 20 nM CPT, ATP luminescence, 48 h; Potency, µM (doses to about 46.2 µM), inactives show top-dose activity change, negative = growth inhibition, actives largely listed as inhibitors; actives 12% (n = 420,000); note: potency is the fitted concentration of half-maximal effect; % is set by controls: 0 for no effect and ±100 for the full control effect; nearly all actives have a fitted effect of over 55% in size
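Cell growth measured by CellTiter-Glo luminescence after a minimum 48 h, 37 C compound exposure with 20 nM CPT in Tdp1-knockout DT40 cells stably expressing hTDP1, seeded 400/well; qHTS titration format.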
TDP1 inh = TDP1 (human) enzyme inhibition | Q9NUW8 | recombinant TDP1, AlphaScreen DNA substrate cleavage | Potency, µM (top dose mostly 130 µM), for inactives: at the top dose activity change, negative = inhibition, hits mostly inhibitors | actives 0.28% (n = 350,000) | AID 485290; note: potency is the fitted concentration of half-maximal effect; % is set by controls: 0 for no effect and ±100 for the full control effect; nearly all actives have a fitted effect of over 40% in size
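Steps: enzyme plus compound, 15 min RT; add biotin/phosphotyrosine-FITC oligonucleotide (15 nM final), react 5 min; add donor/acceptor beads (10 ug/ml final), 10 min; read AlphaScreen. Tdp1 at 1 nM final.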
TDP1 cell noCPT = qHTS for Inhibitors of human tyrosyl-DNA phosphodiesterase 1 (TDP1): qHTS in cells in absence of CPT. DT40 Tdp1-/- hTDP1 cells, no CPT, ATP luminescence, 48 h. Potency, µM (titrated, usually from 46.2 µM), for inactives: at the highest dose activity change, negative = growth inhibition, hits mostly inhibitors. actives 15% (n = 420,000). AID 686978, 2013; note: potency is the fitted concentration of half-maximal effect; % is set by controls: 0 for no effect and ±100 for the full control effect; nearly all actives have a fitted effect of over 55% in size
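Cells were dispensed at 400 per well, compounds added by pin tool, plates incubated ≥48 hr at 37 °C, then CellTiter-Glo added for 30 min at room temperature before luminescence reading. Line: DT40 Tdp1-/- complemented with hTDP1; camptothecin omitted.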
The depositor's hits bear a star; ? = inconclusive; nt = no result. This is a sample that favours compounds with a hit; in the whole collection about 16% have one here. Unless noted, calls come from the whole dose curve; as a rule, active = well fitted curve in the direction sought with a large enough effect; inconclusive = small, poorly fitted or top-dose-only effect, or another doubt; inactive = no such curve, though single readings can be large; an effect the other way counts as inactive or inconclusive.

1) O=C1NC[C@H](CCCCN2CCN(CCC3CCCCC3)C(=O)C2=O)N(CCC2CCCCC2)C1=O
2) Cc1ccc(N=C2NC(=O)/C(=C\c3ccsc3)S2)c(C)c1
3) Cc1ccc(N=C2NC(=O)/C(=C/c3cccnc3)S2)c(C)c1
4) Cc1ccnc(NS(=O)(=O)c2ccc(NC(=O)C(C)(C)C)cc2)n1
5) O=C1/C(=C\c2cccc(O)c2)SC(=S)N1Cc1ccccc1
6) O=C1/C(=C/c2ccncc2)SC(=S)N1N1CCOCC1
7) O=C1/C(=C\c2ccc(O)c(O)c2)SC(=S)N1Cc1ccccc1
8) O=C1/C(=C\c2cc([N+](=O)[O-])ccc2O)SC(=S)N1Cc1ccc(Cl)cc1
9) O=C1/C(=C/c2ccncc2)SC(=S)N1Cc1ccccc1
10) O=C1/C(=C/c2cccnc2)SC(=S)N1N1CCOCC1

| assay / compound | 1 | 2 | 3 | 4 | 5 | 6 | 7 | 8 | 9 | 10 |
| --- | --- | --- | --- | --- | --- | --- | --- | --- | --- | --- |
| uPA generation | nt | 4% | 10% | 0% | -14% | -6% | -12% | 22% | -5% | 16% |
| miR-21 reporter | nt | -12% | 3% | 1% | 8% | 3% | 28% | 12% | 26% | 1% |
| TDP1 cell CPT | 3% | 16µM* | -15% | -7% | ? | 13µM* | 21µM* | 16µM* | ? | ? |
| TDP1 inh | nt | 0% | 6% | 1% | nt | nt | nt | nt | 11% | nt |
| TDP1 cell noCPT | 0% | ? | -21% | 2% | ? | ? | 18µM* | 3.7µM* | 16µM* | -27% |

Compounds 1 to 3, reprinted for reference:
1) O=C1NC[C@H](CCCCN2CCN(CCC3CCCCC3)C(=O)C2=O)N(CCC2CCCCC2)C1=O
2) Cc1ccc(N=C2NC(=O)/C(=C\c3ccsc3)S2)c(C)c1
3) Cc1ccc(N=C2NC(=O)/C(=C/c3cccnc3)S2)c(C)c1

| assay / compound | 1 | 2 | 3 |
| --- | --- | --- | --- |
| uPA generation | nt | 4% | 10% |
| miR-21 reporter | nt | -12% | 3% |
| TDP1 cell CPT | 3% | 16µM* | -15% |
| TDP1 inh | nt | 0% | 6% |
| TDP1 cell noCPT | 0% | ? | -21% |

Other compounds follow:
11) O=C(O)CN1C(=O)/C(=C\c2cc([N+](=O)[O-])ccc2OCc2ccccc2Cl)SC1=S
12) Cc1ccc(NC(=O)N2CCN(c3ncccc3C(F)(F)F)CC2)cc1
13) COCCCNC(=O)Cn1c(=O)n(-c2ccc(Cl)cc2)c(=O)c2c3c(sc21)CCCCC3
14) O=C1C(=Cc2ccccc2O)SC(=S)N1CCCN1CCOCC1
15) O=C(CCN1C(=O)/C(=C\c2ccccc2)SC1=S)NCCCN1CCOCC1
16) O=C1/C(=C\c2cccc(O)c2O)SC(=S)N1Cc1ccccc1
17) O=C1/C(=C/c2ccc(O)cc2)SC(=S)N1Cc1cccnc1
18) C#CCOc1ccc(/C=C2\SC(=S)N(Cc3cccnc3)C2=O)cc1
19) CNC(=O)c1ccc2nc(Cc3ccccc3)oc2c1
20) COc1ccc(NC(=O)C2Cc3c(-c4cccc(NC(C)=O)c4)ccnc3O2)cn1 (centres undefined)

| assay / compound | 11 | 12 | 13 | 14 | 15 | 16 | 17 | 18 | 19 | 20 |
| --- | --- | --- | --- | --- | --- | --- | --- | --- | --- | --- |
| uPA generation | -1% | -8% | nt | nt | -28% | -10% | 0% | 1% | nt | nt |
| miR-21 reporter | 0% | -21% | -2% | nt | -1% | 4% | 0% | -1% | -55% | nt |
| TDP1 cell CPT | -13% | -18% | -19% | ? | ? | ? | -24% | 3.3µM* | -15% | 2.6µM* |
| TDP1 inh | -7% | 9% | 1% | nt | 7% | nt | 2% | 7% | -3% | nt |
| TDP1 cell noCPT | 0% | ? | 12% | 9.2µM* | ? | 23µM* | -17% | 4.6µM* | -16% | 1.8µM* |

21) COc1ccc(NC(=O)C2Cc3c(-c4cccc(C(N)=O)c4)ccnc3O2)cc1 (centres undefined)
22) COc1ccc(NC(=O)C2Cc3c(-c4cccc(C(N)=O)c4)ccnc3O2)cn1 (centres undefined)
23) O=C(Nc1ccc(Cl)cc1)C1Cc2c(-c3cccc(F)c3)ccnc2O1 (centres undefined)
24) CC(=O)Nc1cccc(-c2ccnc3c2CC(C(=O)NC(C)C)O3)c1 (centres undefined)
25) CC(=O)Nc1ccc(NC(=O)C2Cc3c(-c4cccc(F)c4)ccnc3O2)cc1 (centres undefined)
26) CN(CC(=O)Nc1ccc(F)cc1)C(=O)CSc1nnc(Cc2ccccc2)o1
27) Cc1c(C#N)c(NC(=O)COC(=O)c2cc(Cl)c3c(c2)OCCCO3)n(Cc2ccco2)c1C
28) Cc1nc(SCC(=O)N(C)C2(C#N)CCCCC2)c2ccccc2n1
29) O=C(NCCC(F)(F)F)C1Cc2c(-c3cccc(F)c3)ccnc2O1 (centres undefined)
30) COc1ccc(NC(=O)C2Cc3c(-c4cccc(F)c4)ccnc3O2)cc1 (centres undefined)

| assay / compound | 21 | 22 | 23 | 24 | 25 | 26 | 27 | 28 | 29 | 30 |
| --- | --- | --- | --- | --- | --- | --- | --- | --- | --- | --- |
| uPA generation | nt | nt | nt | nt | nt | -2% | nt | ? | nt | nt |
| miR-21 reporter | nt | nt | nt | nt | nt | nt | nt | nt | nt | nt |
| TDP1 cell CPT | 5.8µM* | 10µM* | ? | -22% | -4% | ? | ? | ? | -17% | 21µM* |
| TDP1 inh | nt | nt | nt | nt | nt | 0% | nt | 1% | nt | nt |
| TDP1 cell noCPT | 3.7µM* | 12µM* | 18µM* | ? | -24% | -23% | -2% | ? | -19% | ? |

31) CC(=O)Nc1cccc(-c2ccnc3c2CC(C(=O)Nc2ccc(Cl)cc2)O3)c1 (centres undefined)
32) CCCc1cnc(N2CCN(C(=S)NC)CC2)nc1
33) CC1=CC(C)(C)N(C(=O)CN2C(=O)c3ccccc3C2=O)c2ccccc21
34) COc1ccc2c(c1)C(C)=CC(C)(C)N2S(=O)(=O)c1ccc(NC(C)=O)cc1
35) COc1ccc(S(=O)(=O)N2CC=C(C(=O)Nc3ccc(NC(C)=O)cc3)CC2)cc1
36) CCOc1ccc2c(c1)C(C)=CC(C)(C)N2S(=O)(=O)c1ccc(NC(C)=O)cc1
37) CC1=CC(C)(C)N(S(=O)(=O)c2ccc(C)cc2)c2ccccc21
38) CC1=CC(C)(C)N(S(=O)(=O)c2ccc(F)cc2)c2ccc(C)cc21
39) Cc1cc(C)c(S(=O)(=O)c2ccc(F)cc2)c(C)c1
40) CCOc1ccc(NC(=O)CCS(=O)(=O)c2ccc(C)cc2)cc1

| assay / compound | 31 | 32 | 33 | 34 | 35 | 36 | 37 | 38 | 39 | 40 |
| --- | --- | --- | --- | --- | --- | --- | --- | --- | --- | --- |
| uPA generation | nt | 0% | -4% | -15% | -2% | ? | ? | ? | nt | 3% |
| miR-21 reporter | nt | -56% | -2% | ? | 0% | 15% | 24% | 24% | nt | 2% |
| TDP1 cell CPT | 16µM* | 3% | ? | 5.8µM* | 13% | 1µM* | 12µM* | ? | -21% | -15% |
| TDP1 inh | nt | 6% | 2% | nt | 6% | 2% | 4% | -2% | nt | nt |
| TDP1 cell noCPT | 16µM* | -3% | ? | 2.3µM* | 0% | 1.3µM* | 18µM* | 5.8µM* | ? | ? |

Ordered by molecular weight (rising): part of the list above
38) CC1=CC(C)(C)N(S(=O)(=O)c2ccc(F)cc2)c2ccc(C)cc21
34) COc1ccc2c(c1)C(C)=CC(C)(C)N2S(=O)(=O)c1ccc(NC(C)=O)cc1
36) CCOc1ccc2c(c1)C(C)=CC(C)(C)N2S(=O)(=O)c1ccc(NC(C)=O)cc1

| assay / compound | 38 | 34 | 36 |
| --- | --- | --- | --- |
| uPA generation | ? | -15% | ? |
| miR-21 reporter | 24% | ? | 15% |
| TDP1 cell CPT | ? | 5.8µM* | 1µM* |
| TDP1 inh | -2% | nt | 2% |
| TDP1 cell noCPT | 5.8µM* | 2.3µM* | 1.3µM* |

Later entries.
41) O=C(CCCCCn1c(=O)c2sccc2n(CC(=O)Nc2cc(C(F)(F)F)ccc2Cl)c1=O)NCc1ccccc1Cl
42) O=C(c1oc2ccccc2c1CSCc1ccccc1)N1CCN(c2ncccn2)CC1
43) CCOc1ccc(S(=O)(=O)n2cc(-c3ccc(F)cc3)c(N)n2)cc1
44) CCOc1ccc2c(c1)C(C)=CC(C)(C)N2S(=O)(=O)c1ccc(F)cc1
45) O=C1C[C@H](c2ccccc2Cl)N1S(=O)(=O)c1ccccc1[N+](=O)[O-]
46) CCOC(=O)C1(Cc2cccc(OC)c2)CCN(Cc2cccc(OCC)c2O)CC1
47) CCOC(=O)C1(Cc2cccc(OC)c2)CCN(C/C=C/c2ccccc2)CC1
48) CCOC(=O)C1(Cc2cccc(OC)c2)CCN(CC=C(C)C)CC1
49) CCOC(=O)C1(Cc2cccc(OC)c2)CCN(C/C=C/c2ccc(OC)cc2)CC1

| assay / compound | 41 | 42 | 43 | 44 | 45 | 46 | 47 | 48 | 49 |
| --- | --- | --- | --- | --- | --- | --- | --- | --- | --- |
| uPA generation | nt | 2% | nt | 8.9µM* | nt | 5% | 2% | -4% | 3% |
| miR-21 reporter | -11% | 18% | -4% | 13% | nt | 1% | 12% | 1% | 7% |
| TDP1 cell CPT | -27% | ? | 3% | ? | nt | 23µM* | 16µM* | ? | 5.8µM* |
| TDP1 inh | 1% | 2% | 0% | nt | 10% | 6% | 5% | -3% | nt |
| TDP1 cell noCPT | -28% | ? | -21% | ? | nt | 16µM* | 18µM* | 16µM* | 5.2µM* |
